Source: patent US9255100B2 (BAYER INTELLECTUAL PROPERTY GMBH, priority 2010, dated 2016)

Target: T1, N-terminally GST-tagged human full length recombinant Mps-1 kinase (Homo sapiens, UniProt P33981)
T1 construct: N-terminally GST-tagged human full length recombinant Mps-1 kinase; purchased Invitrogen, Karslruhe, Germany PV4071
T1 sequence (P33981 1-857): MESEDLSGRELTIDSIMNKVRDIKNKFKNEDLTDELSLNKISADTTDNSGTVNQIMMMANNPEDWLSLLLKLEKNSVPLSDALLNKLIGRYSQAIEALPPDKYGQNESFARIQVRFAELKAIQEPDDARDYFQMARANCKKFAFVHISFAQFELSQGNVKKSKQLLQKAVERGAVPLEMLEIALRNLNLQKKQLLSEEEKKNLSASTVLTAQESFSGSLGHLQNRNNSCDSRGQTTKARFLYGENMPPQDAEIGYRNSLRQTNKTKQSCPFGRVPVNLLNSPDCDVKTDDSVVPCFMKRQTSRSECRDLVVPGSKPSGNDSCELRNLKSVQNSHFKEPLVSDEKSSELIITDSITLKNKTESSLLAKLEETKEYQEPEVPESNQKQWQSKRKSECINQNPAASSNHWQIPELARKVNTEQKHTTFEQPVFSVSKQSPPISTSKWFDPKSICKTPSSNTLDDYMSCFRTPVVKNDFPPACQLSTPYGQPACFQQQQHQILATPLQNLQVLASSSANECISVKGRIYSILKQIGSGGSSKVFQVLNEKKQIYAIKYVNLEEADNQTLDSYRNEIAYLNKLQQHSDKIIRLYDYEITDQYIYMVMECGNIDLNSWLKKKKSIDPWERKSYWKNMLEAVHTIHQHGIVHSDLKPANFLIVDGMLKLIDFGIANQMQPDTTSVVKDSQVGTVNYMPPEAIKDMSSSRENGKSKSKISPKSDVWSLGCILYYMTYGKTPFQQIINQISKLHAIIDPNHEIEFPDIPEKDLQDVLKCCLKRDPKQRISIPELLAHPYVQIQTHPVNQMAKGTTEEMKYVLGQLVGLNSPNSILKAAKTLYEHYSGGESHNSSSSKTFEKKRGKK
Assay: Mps-1 kinase assay (TR-FRET)
Assay type: biochemical
Conditions: Mps1 IC50 [nM], 10 μM ATP, 1 μM peptide substrate, 60 min at 22° C.
Description: The human kinase Mps-1 phosphorylates a biotinylated substrate peptide. Detection of the phosphorylated product is achieved by time-resolved fluorescence resonance energy transfer (TR-FRET) from Europium-labelled anti-phospho-Serine/Threonine antibody as donor to streptavidin labelled with cross-linked allophycocyanin (SA-XLent) as acceptor. Compounds are tested for their inhibition of the kinase activity.
N-terminally GST-tagged human full length recombinant Mps-1 kinase (purchased from Invitrogen, Karslruhe, Germany, cat. no PV4071) was used. As substrate for the kinase reaction a biotinylated peptide of the amino-acid sequence […] (C-terminus in amide form, purchased from Biosynthan GmbH, Berlin) was used. […]
The resulting mixture was incubated 1 h at 22° C. to allow the binding of the phosphorylated peptide to the anti-phospho(Ser/Thr)-Europium-antibody. Subsequently the amount of phosphorylated substrate was evaluated by measurement of the resonance energy transfer from the Europium-labelled anti-phospho(Ser/Thr) antibody to the Streptavidin-XLent. […] The “blank-corrected normalized ratio” (a Viewlux specific readout, similar to the traditional ratio of the emissions at 665 nm and at 622 nm, in which blank and Eu-donor crosstalk are subtracted from the 665 nm signal before the ratio is calculated) was taken as the measure for the amount of phosphorylated substrate.

IC50 [nM]	SMILES
6.3	CC(C)CNc1cc(-c2cccc3ncccc23)nn2c(-c3ccc(C(=O)NC4CC4)cc3)cnc12 [Example 111, N-cyclopropyl-4-{8-[(2-methylpropyl)amino]-6-(quinolin-5-yl)imidazo [1,2-b]pyridazin-3-yl} benzamide]
6.3	Cc1cc(-c2cc(NCC(C)(C)O)c3ncc(-c4ccc(C(=O)NC5CC5)c(C)c4)n3n2)ccn1 [Example 164, N-cyclopropyl-4-{8-[(2-hydroxy-2-methylpropyl)amino]-6-(2-methylpyridin-4-yl)imidazo[1,2-b]pyridazin-3-yl}-2-methylbenzamide]
